These are literature values, as cited in patent US20130273207A1, “Calcium Fortifying Composition for Strength, a Hydration Supplement, and Process for Preparing the Same” (priority 2010, published 2013).

The conditions of the series: single components; cited from earlier work.

As a reminder, the solubility is the dissolved amount per volume that the medium holds. Regarding calcium gluconate [reference compound], the solubility is 35 mg/mL.
